# Only some compounds are listed: those with a hit (about 1.3% of all), similar ones and a draw of the others.
# PTHR1 agonist: agonists of human PTHR1 parathyroid hormone receptor. HEK293 GP2 PTHR1 cells, GloSensor cAMP luminescence, 1 h. Potency, µM (highest dose often 115 µM), inactives show at the highest dose activation, hits mostly activators. hit rate 0.075% among 410,000. AID 743266; note: potency is the fitted concentration of half-maximal effect; nearly all actives have a fitted effect of over 55% in size
#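 HEK-293-derived GP2 cells expressing PTHR1 and a GloSensor cAMP reporter, 3,000/well, plated overnight, given luciferin plus IBMX (each 0.5 mM as added) for 1 h at 37 °C, then compound for 1 h at 37 °C. Luminescence was read after 15 min at room temperature.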
# 12-LOX inh: ALOX12 (human) lipoxygenase inhibition. P18054. purified 12hLO, xylenol orange hydroperoxide absorbance. Potency, µM (highest dose often 108 µM), without a hit: at the top dose activity change, negative = inhibition, usual class: inhibitors. hit rate 1.1% among 580,000; note: potency is the fitted concentration of half-maximal effect; % is set by controls: 0 for no effect and ±100 for the full control effect
#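 Hydroperoxide product was detected by ferrous iron/xylenol orange as the 573 to 405 nm absorbance ratio. Arachidonic acid at 40 uM (final) was turned over for 30 min at room temperature by 150 nM human 12hLO, pH 7.0 Hepes buffer, after 15 min compound preincubation.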
# PINK1 modulator: changes PINK1 expression; PINK1 immunofluorescence, high-content cytometry, 24 h; Potency, µM (doses to about 76.6 µM), without a hit: top-dose activation (PINK1 increase), most hits filed as activators; hit rate 0.2% among 410,000; AID 624263; active = well fitted activation curve with a large enough effect; inconclusive = small, poorly fitted or top-dose-only effect; cell line not stated here; note: potency is the fitted concentration of half-maximal effect; % of control where 0% means no effect; nearly all actives have a fitted effect of over 65% in size
#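 Readout is PINK1 immunofluorescence, quantified alongside mitochondrial, cell and nuclear markers by laser-scanning microplate cytometry. Cells from a stable line were exposed to compound titrations (5 concentrations) for 24 hours, with CCCP controls.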
# miR-21 reporter: miR-21 reporter, rising signal. 340,000 tested, under 10 active. Potency, µM (highest dose often 38.3 µM), for the others: at the highest dose reporter change, positive = more light. HeLa miR-21 FLuc reporter, luciferase, 48 h. AID 2288; active = well fitted rising curve with a large enough effect; inconclusive = small, poorly fitted or top-dose-only effect; inactive = no such curve, though single readings can be large or run the other way;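 further: % of control where 0% means no effect; miR-21 action dims this reporter so a rising signal means less miR-21 action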
#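 Using DMEM plus 10% FBS, HeLa miR-21-FLuc cells are incubated with test compounds (final up to about 40uM) for 48 hours; firefly luciferase signal is then imaged following reagent-mediated lysis.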
# Giardia killer: Giardia lamblia killing; Giardia lamblia trophozoite viability; activity change, % at 7.66 µM, hits read low; hit rate 0.15% among 340,000; AID 540267; in the data active = activity change below about -80%; inconclusive = between about -30% and that limit;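 note: parasites exposed to compound for two days anaerobically before the ATP read; % is set by controls: 0 for no effect and ±100 for the full control effect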
#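 Each well holds 100 Giardia trophozoites and compound. After two days (48 hrs) at 37 deg C in anaerobic conditions, ATP is quantified by luminescence.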
# ERG-DNA inh: blocks human ERG Ets domain binding to DNA. P11308. fluorescence polarization, His-ERG Ets domain / labelled DNA. Potency, µM (highest dose often 76.9 µM), for the others: top-dose FP activity, negative = inhibition, usual class: inhibitors. hit rate 0.028% among 370,000; active = well fitted inhibition curve with a large enough effect in the polarisation, with a control signal flat; inconclusive = small, poorly fitted or top-dose-only effect, or effect the other way, or a change in a side signal; inactive = no such curve, though single readings can be large or run the other way; the % refers to the polarisation;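 note: polarization taken with two DNA probes labelled with fluorescein and Texas red; potency is the fitted concentration of half-maximal effect; % of control where 0% means no effect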
#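 His-tagged ERG Ets domain (1 uM in the protein solution; 300mM KCl, 50mM Tris-HCl, 1mM EDTA, 1mM DTT, pH 7.5) received compound, then a probe mix of 5 nM fluorescein-DNA and 100nM Texas-615-DNA. Fluorescence polarization was read for both dyes.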
# * = called active by the depositor; i = inactive; ? = inconclusive; / = no result; [ ] = another dose, or the depositor's remark. Unless noted, calls come from the whole dose curve; as a rule, active = well fitted curve in the direction sought with a large enough effect; inconclusive = small, poorly fitted or top-dose-only effect, or another doubt; inactive = no such curve, though single readings can be large; an effect the other way counts as inactive or inconclusive.
# Fields: PTHR1 agonist, 12-LOX inh, PINK1 modulator, miR-21 reporter, Giardia killer, ERG-DNA inh
> CCc1cc2c(N3CCCCC3)ncnc2s1
 : -89.4%[57.5 µM], 28.2µM*, -2.3%, -8.9%, 11.7, 6.0%
> COc1ccc(/C=N/NC(=S)N[C@H]2CC3CCC2C3)cc1 (stereo not given in full)
 : i, 10µM*, 4.2%, -22.4%, -9.9, -27.9%
> COc1cc(/C=N/NC(=S)NC2CC3CCC2C3)ccc1O (stereo not given)
 : -19.3%, ?, 3.2%, -61.4%, -4.0, 0.0%
> CC(C)CCOC(=O)/C(=C/c1ccco1)NC(=O)/C=C/c1ccccc1
 : i, 39.8µM*, /, 4.5%, -15.3, -3.7%
> NC(=O)/C(=C/c1ccco1)NC(=O)/C=C/c1ccccc1
 : i, ?, -2.0%, -6.7%, -11.4, -5.5%
> CCn1cc(C(=O)N2CCN(c3cccc(C)c3)C(C)C2)c(=O)c2cc(S(=O)(=O)N3CCOCC3)ccc21 (stereo not given)
 : ?, -17.2%, 1.8%, 2.1%, /, 3.8%
> Cc1cccc(C)c1Nc1c(-c2ccc(O)cc2)nc2sccn12
 : -2.9%, 20µM*, -0.8%, -5.8%, /, -2.5%
> CC(=O)N1CCC([C@@H]2CN(C(=O)c3nccc4ccccc34)C[C@H]2CO)CC1
 : /, 42.3%, /, /, /, /
> COc1ccc(COc2ccsc2C(=O)Nc2ccc(Cl)c(Cl)c2)cc1
 : i, -11.9%, 10µM*, -9.7%, 7.5, -8.7%
> O=C(NCc1n[nH]c(=S)n1Cc1ccccc1)c1ccccc1
 : -0.7%, -16.8%, -1.8%, 0.2%, 5.1, 11.6%
> CCN(CC)S(=O)(=O)c1ccc(C(=O)NCc2n[nH]c(=S)n2Cc2ccccc2)cc1
 : -0.3%, 25.1µM*, -1.9%[38.3 µM], -7.4%, -8.5, -2.1%
> S=c1[nH]c2ccc(Cl)cc2s1
 : -19.2%, -73.7%, 0.7%, -6.1%, -14.4, 7.9%
> Cc1cccc2sc(=S)[nH]c12
 : -16.8%, 31.6µM*, 3.5%, /, /, /
> CCCCCCCNC1=CC(=O)CC(c2ccccc2)C1 (stereo not given)
 : i, -7.3%, 39.8µM*, 26.3%, -1.2, 8.4%
> COc1ccccc1CC(=O)NCc1nnc2cc(-c3nc(C)no3)ccn12
 : /, 39.2%, /, /, /, /

# Whole records from above:
# Shown for CC(=O)N1CCC([C@@H]2CN(C(=O)c3nccc4ccccc34)C[C@H]2CO)CC1 → PTHR1 agonist = /; 12-LOX inh = 42.3%; PINK1 modulator = /; miR-21 reporter = /; Giardia killer = /; ERG-DNA inh = /
# Shown for CCCCCCCNC1=CC(=O)CC(c2ccccc2)C1 (stereo not given) → PTHR1 agonist = i; 12-LOX inh = -7.3%; PINK1 modulator = 39.8µM*; miR-21 reporter = 26.3%; Giardia killer = -1.2; ERG-DNA inh = 8.4%

# (further entries)
# Fields: PTHR1 agonist, 12-LOX inh, PINK1 modulator, miR-21 reporter, Giardia killer, ERG-DNA inh
> CCc1noc(-c2ccn3c(CNC(=O)c4ccccc4Cl)nnc3c2)n1
 : /, 12.8%, /, /, /, /
> CCCc1noc(-c2ccn3c(CNC(=O)c4ccccc4F)nnc3c2)n1
 : /, 50.1µM*, /, /, /, /
> CCCc1noc(-c2ccn3c(CNC(=O)Cc4ccccc4OC)nnc3c2)n1
 : /, 50.1µM*, /, /, /, /
> CCCc1noc(-c2ccn3c(CNC(=O)c4ccccc4Cl)nnc3c2)n1
 : /, 39.8µM*, /, /, /, /
> CC(C)NC(=S)N/N=C/c1ccc(C(C)(C)C)cc1
 : -35.3%, 31.6µM*, ?, 10.1%, -0.6, -0.9%
> Cc1cccc(CNc2nc(-c3ccoc3)nc3ccccc23)c1
 : /, ?, 1.1%, /, /, /
> c1ccc(CNc2nc(-c3ccoc3)nc3ccccc23)cc1
 : /, 15.8µM*, 4.8%, /, /, /
> O=C(NCc1ccccc1)[C@H]1CCCN1C(=O)[C@H]1CCCN1C(=O)c1ccc(Cl)cc1
 : /, -8.6%, /, /, /, /
> O=C(Nc1ccc(Br)cc1Cl)c1cnccn1
 : -14.2%[57.5 µM], 31.6µM*, -0.3%[38.3 µM], -34.9%, 14.1, 11.1%
> Cc1ccc(C2=NCC(C)n3c2c2ccc(C(F)(F)F)cc2[n+]3[O-])cc1 (stereo not given)
 : /, -7.9%, /, /, /, /
> [O-][n+]1c2cc(C(F)(F)F)ccc2c2n1CCN=C2c1ccc(Cl)cc1
 : -31.2%, -2.4%, 1.6%, /, -88.6*, 1.8%
> O=C1COc2ccc(-c3ccncc3)nc2CN1Cc1ccc(C(F)(F)F)cc1
 : /, -13.5%[176 µM], /, /, /, /
> O=C1COc2ccc(-c3ccoc3)nc2CN1Cc1ccc(C(F)(F)F)cc1
 : /, 39.8µM*, /, /, /, /
> CCOc1ccc(-c2nc(N)ncc2-c2ccc(Cl)cc2)c(O)c1
 : -22.8%, 0.0%, 3.2%, -0.5%, -8.9, 0.5%
> CCOC(=O)N1CCN(C/C(Cl)=C/c2ccccc2)CC1
 : i, 2.24µM*, 0.9%, -20.3%, -9.9, -19.5%

# Other results.
# Fields: PTHR1 agonist, 12-LOX inh, PINK1 modulator, miR-21 reporter, Giardia killer, ERG-DNA inh
> CCOC(=O)N1CCN(CC(=O)N2c3ccccc3CCc3ccccc32)CC1
 : -9.8%, -20.1%, 0.2%, -0.9%, ?, -3.5%
> COc1ccc(NC(=O)C2CC(c3cccc(Br)c3)=NO2)cc1OC (stereo not given)
 : i, -87.0%, 1.3%, 1.0%, 6.0, -1.4%
> CCC(C)(C)c1ccc(OCC(O)CNCc2ccccc2)c(C(C)(C)CC)c1 (stereo not given)
 : /, 44.7µM*, /, /, /, /
> CN(Cc1ccc(C(C)(C)C)cc1)C(=O)c1ccc2c(=O)n3c(nc2c1)CCC3
 : -13.2%, 6.1%, 1.9%, /, -9.0, -11.9%
> CC1(OC(=O)C2CCCC2)C(=O)C=C2C=C(c3ccsc3)N(C(CO)CO)C=C2C1=O (stereo not given)
 : 12.7%, -9.7%, -0.3%, -0.7%, -22.3, 28.2µM*
> CC1(OC(=O)C2CCCC2)C(=O)C=C2C=C(c3ccsc3)N(c3ccccc3)C=C2C1=O (stereo not given)
 : -13.3%, 12.6µM*, 0.4%, -13.8%, 24.9, 5.6%
> CC1=C(C(=O)Nc2cccc(C(=O)NC3CCCCC3C)c2)SCCO1 (stereo not given)
 : -22.6%, -5.0%, -0.3%, 7.0%, -23.2, 1.9%
> COc1ccc(-c2ccc(CN)cc2)cc1
 : /, 8.4%[12.5 µM], /, /, /, /
> CN1C[C@@H](NC(=O)Nc2ccccc2)C[C@H]1c1nc(-c2ccccc2)no1
 : /, 28.2µM*, /, /, /, /
> CN1C[C@@H](NC(=O)Nc2ccccc2)C[C@H]1c1nc(-c2ccc(F)cc2)no1
 : /, -2.9%[176 µM], /, /, /, /
> Cc1cccc(NC(=S)N/N=C2/CCCC(C)C2)c1 (stereo not given)
 : /, 35.5µM*, /, /, /, /
> CC1CCC/C(=N\NC(=O)Nc2ccccc2)C1 (stereo not given)
 : i, -2.9%, 4.7%, -34.1%, 7.3, 9.8%
> COc1cccc(CN(C)C(=O)CCNC(=O)c2ccc(Br)cc2)c1
 : -21.4%, 1.5%, 1.9%, 0.9%, 7.8, 3.1%
> Cc1ccc(S(=O)(=O)N2CCC3(CC2)SCC(=O)N3Cc2ccco2)cc1
 : /, 14.1µM*, /, /, /, /
> O=S(=O)(c1ccc(Br)cc1)N1CCN(Cc2ccco2)CC1
 : -13.7%, -4.8%, 1.2%, -10.5%, 24.7, 21.7%

# Reprinted at random: 2 entries already listed, in no set order.
# Fields: PTHR1 agonist, 12-LOX inh, PINK1 modulator, miR-21 reporter, Giardia killer, ERG-DNA inh
> O=S(=O)(c1ccc(Br)cc1)N1CCN(Cc2ccco2)CC1
 : -13.7%, -4.8%, 1.2%, -10.5%, 24.7, 21.7%
> CN(Cc1ccc(C(C)(C)C)cc1)C(=O)c1ccc2c(=O)n3c(nc2c1)CCC3
 : -13.2%, 6.1%, 1.9%, /, -9.0, -11.9%

# Remaining list, next part.
# Fields: PTHR1 agonist, 12-LOX inh, PINK1 modulator, miR-21 reporter, Giardia killer, ERG-DNA inh
> COc1ccc(S(=O)(=O)N2CCN(Cc3ccco3)CC2)cc1
 : i, 2.51µM*, -0.9%, -5.1%, 7.4, -0.2%
> CC(C)=NNC(=O)c1c(O)c2ccccc2[nH]c1=O
 : i, 13.3%, 39.8µM*, 4.3%, -4.1, -0.2%
> CCNC(=O)Cc1ccc(N(Cc2ccccc2)C(=O)c2ccco2)cc1
 : /, 2.6%, /, /, /, /
> S=C(NCCSCc1ccc(Cl)cc1)Nc1ccccc1
 : -13.0%, 44.7µM*, 3.0%, 13.8%, 18.5, -5.5%
> Cc1cccc(CSCCNC(=S)Nc2ccccc2)c1
 : i, ?, -1.0%, -0.1%, 20.5, 7.1%

# Screens from PubChem BioAssay.
